## Yeast mating assay 2: variants of the scFv Ab-95

Binding partner: SARS-CoV-2 spike HR2 peptide, sequence PDVDLGDISGINAS.

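Variants in AAYL52 differ from the parent at up to three CDR positions; double and triple changes were sampled at random. In AlphaSeq, yeast of one mating type display the scFv and yeast of the other type display the target. Pairs that bind mate more often; barcode pairs of the diploids are counted by sequencing. A regression on co-assayed BCL2-family reference pairs converts the normalised counts of each replicate to an apparent Kd. Each pool was mated in three replicate cultures.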

Each scFv is VH, the linker GGGGSGGGGSGGGGS, VL, as in the parent Ab-95, and differs from it in the CDRs of the light chain only.
VH: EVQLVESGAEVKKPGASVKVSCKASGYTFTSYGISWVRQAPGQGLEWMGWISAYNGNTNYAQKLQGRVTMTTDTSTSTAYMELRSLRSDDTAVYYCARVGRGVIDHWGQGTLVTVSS
VL: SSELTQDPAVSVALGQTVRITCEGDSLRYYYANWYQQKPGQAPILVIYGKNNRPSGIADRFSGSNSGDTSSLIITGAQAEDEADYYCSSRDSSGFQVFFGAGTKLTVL

Changes read parent residue, position, new residue, counted from the first residue of the VL shown. All variants listed here change S55 of the VL, counted from its first residue. The read-out is the apparent dissociation constant on a log10 scale (nM): the lower, the stronger. Replicates are averaged; those with no signal do not enter the mean. A pair that was not seen in any replicate is written "no signal"; this usually means weak binding, but a binder can also be missed. For reference, the parent read 2.31 as the reference entry and 2.25 as a member of this library.

Variant Y29H/S55I/D91Y gave 1.80 (3 of 3 replicates). Variant Y31Q/S55K showed 1.08 (3 of 3 replicates). Variant A32I/S55E gave 2.95 (3 of 3 replicates). For N33G/R53D/S55W, the assay gave no signal (0 of 3 replicates). Variant S55Q/S89K/V97T showed 3.39 (1 of 3 replicates). Variant E23L/N51K/S55H showed 4.10 (1 of 3 replicates). For P54A/S55Y/R90L, the assay gave no signal (0 of 3 replicates). For A32P/K50L/S55L, the assay gave 1.29 (3 of 3 replicates).

For L27Y/S55N/V97L, the assay gave no signal (0 of 3 replicates). With Y29G/S55L the result was 1.18 (3 of 3 replicates). For P54S/S55H/D91L, the assay gave no signal (0 of 3 replicates). Variant E23H/N51Q/S55I showed 2.53 (3 of 3 replicates). Variant R53F/S55I/S89I showed 3.87 (1 of 3 replicates). With K50P/S55Q the result was 2.60 (3 of 3 replicates). For G24V/S55L/R90N, the assay gave no signal (0 of 3 replicates). With L27D/S55E the result was no signal (0 of 3 replicates).

For L27N/A32R/S55F, the assay gave 3.56 (3 of 3 replicates). For G24N/S55H/V97F, the assay gave 4.46 (2 of 3 replicates). For S55L/F98C, the assay gave 2.71 (3 of 3 replicates). Variant E23T/K50L/S55Y gave 2.64 (3 of 3 replicates). For S55T/R90L/G94Q, the assay gave 2.43 (3 of 3 replicates). Variant N51Y/S55E/S89F showed 3.81 (3 of 3 replicates). With L27W/S55C the result was 3.40 (1 of 3 replicates). Variant P54H/S55T/S89N showed 2.48 (3 of 3 replicates).

Variant S55L/F98K gave 2.42 (3 of 3 replicates). Variant Y29E/S55P/S93T showed no signal (0 of 3 replicates). For E23N/S55W/D91R, the assay gave 4.08 (2 of 3 replicates). Variant E23M/K50M/S55F gave 2.98 (3 of 3 replicates). Variant G49F/R53I/S55A showed 4.38 (2 of 3 replicates). Variant E23W/S55F/S92A showed 3.55 (3 of 3 replicates). For R53F/S55Q, the assay gave 3.29 (2 of 3 replicates).

The closing 4 entries, repeated:

changes,"mean, log10 nM",replicates with signal
E23M/K50M/S55F,2.98,3/3
G49F/R53I/S55A,4.38,2/3
E23W/S55F/S92A,3.55,3/3
R53F/S55Q,3.29,2/3

Empty control strains, which show no peptide, gave a signal in 28% of pairings with library AAYL52; the median was 3.91 and 95% of these signals were weaker than 2.90. No background was subtracted.

From the AlphaSeq antibody data of Engelhart et al. 2022 (doi:10.1038/s41597-022-01779-4), copy in the FLAb collection.